For 47 molecules, IC50 results are on record in patent publication US10179769B2, “Histone demethylase inhibitors” (CELGENE QUANTICEL RESEARCH, INC., priority 2012, dated 2019).

As usually defined, the IC50 is the concentration that gives 50% inhibition.

One experiment has as its system KYSE-150 esophageal carcinoma cell line. Nature of the experiment: Cell proliferation assay, BrdU incorporation ELISA. It is filed as cell-based, human. To be noted: Homo sapiens; KYSE-150, BrdU incorporation after 168 hr compound incubation; read-out: Cellular IC50. On the technique in general: Dividing cells build labelled thymidine or BrdU into new DNA.
On to `N#Cc1ccc(CNc2cnccc2C(=O)O)cc1` [Example 5, 3-[(4-cyanobenzyl)amino]pyridine-4-carboxylic acid], for which the IC50 is more than 10 µM.
For `O=C(O)c1ccncc1NCc1ccc(Cl)cc1` [Example 10, 3-[(4-chlorobenzyl)amino]pyridine-4-carboxylic acid], the IC50 was more than 10 µM.
Still for that read-out and setting: the figure for `O=C(O)c1ccncc1NCc1ccc(Cl)c(Cl)c1` [Example 14, 3-[(3,4-dichlorobenzyl)amino]pyridine-4-carboxylic acid] is more than 10 µM; for `Cc1cc(Cl)ccc1CNc1cnccc1C(=O)O` [Example 15, 3-[(4-chloro-2-methylbenzyl)amino]pyridine-4-carboxylic acid] it is more than 10 µM; for `COc1ccc(CNc2cnccc2C(=O)O)c(OC)c1` [Example 16, 3-[(2,4-dimethyoxybenzyl)amino]pyridine-4-carboxylic acid] it is more than 10 µM.
In the case of `O=C(O)c1ccncc1NCc1ccccc1O` [Example 17, 3-[(2-hydroxybenzyl)amino]pyridine-4-carboxylic acid], the IC50 is more than 10 µM.
On the same count and under the same terms, the result for `O=C(O)c1ccncc1NCc1ccc(Cl)cc1Cl` [Example 18, 3-[(2,4-dichlorobenzyl)amino]pyridine-4-carboxylic acid] reads more than 10 µM; that for `O=C(O)c1ccncc1NCc1ccccc1C1CC1` [Example 19, 3-[(2-cyclopropylbenzyl)amino]pyridine-4-carboxylic acid], more than 10 µM.
On the same count and under the same terms, the result for `O=C(O)c1ccncc1NCc1ccc(Br)cc1` [Example 23, 3-[(4-bromobenzyl)amino]pyridine-4-carboxylic acid] reads more than 10 µM.
Take `O=C(O)c1ccncc1NCc1ccc(C2CC2)cc1` [Example 25, 3-[(4-cyclopropylbenzyl)amino]pyridine-4-carboxylic acid]: the IC50 was more than 10 µM.
Same read-out and setting: the figure for `O=C(O)c1ccncc1NCc1ccc(Cl)cc1C1CC1` [Example 26, 3-[(4-chloro-2-cyclopropylbenzyl)amino] pyridine-4-carboxylic acid] is more than 10 µM; for `O=C(O)c1ccncc1NCc1cccc2ccccc12` [Example 28, 3-[(naphthalene-1-ylmethyl)amino]pyridine-4-carboxylic acid] it is more than 10 µM.
On the same count and under the same terms, the result for `Cc1cccc(CNc2cnccc2C(=O)O)c1C1CC1` [Example 30, 3-[(2-cyclopropyl-3-methylbenzyl)amino] pyridine-4-carboxylic acid] reads more than 10 µM; that for `O=C(O)c1ccncc1NCc1coc2ccccc12` [Example 38, 3-[(1-benzofuran-3-ylmethyl)amino] pyridine-4-carboxylic acid], more than 10 µM; that for `Cc1ccc(CNc2cnccc2C(=O)O)s1` [Example 39, 3-{[(5-methylthiophen-2-yl)methyl]amino} pyridine-4-carboxylic acid], more than 10 µM.
The same measure, in the same setting: the figure for `Cc1ccc(CNc2cnccc2C(=O)O)o1` [Example 40, 3-{[(5-methylfuran-2-yl)methyl]amino} pyridine-4-carboxylic acid] is more than 10 µM; for `O=C(O)c1ccncc1NCc1cc2ccccc2o1` [Example 41, 3-[(1-benzofuran-2-ylmethyl)amino] pyridine-4-carboxylic acid] it is more than 10 µM; for `O=C(O)c1ccncc1NCC12CC3CC(CC(C3)C1)C2` [Example 42, 3-[(adamantan-1-ylmethyl)amino]pyridine-4-carboxylic acid] it is more than 10 µM.
With `O=C(O)c1ccncc1NCC1CCc2ccccc21` (centres unmarked) [Example 45], the IC50 is more than 10 µM.
Still for that read-out and setting: the figure for `O=C(O)c1ccncc1NCC1CCCc2ccccc21` (centres unmarked) [Example 46, 3-[(1,2,3,4-tetrahydronaphthalen-1-yl-methyl)amino]-pyridine-4-carboxylic acid] is 1 to 10 µM; for `O=C(O)c1ccncc1NC[C@H]1CCCc2ccccc21` [Example 47, 3-{[(1S)-1,2,3,4-tetrahydronaphthalen-1-yl-methyl]amino}-pyridine-4-carboxylic acid] it is 1 to 10 µM; for `O=C(O)c1ccncc1NC[C@@H]1CCCc2ccccc21` [Example 48, 3-{[(1R)-1,2,3,4-tetrahydronaphthalen-1-yl-methyl]-amino}pyridine-4-carboxylic acid] it is more than 10 µM.
Still for that read-out and setting: the result for `CC1(CNc2cnccc2C(=O)O)CCCc2ccccc21` (centres unmarked) [Example 49, 3-{[(1-methyl-1,2,3,4-tetrahydronaphthalen-1-yl)methyl]-amino}pyridine-4-carboxylic acid] reads more than 10 µM.
Still for that read-out and setting: the result for `O=C(O)c1ccncc1NCC1CCCc2ccc(F)cc21` (centres unmarked) [Example 50, 3-{[(7-fluoro-1,2,3,4-tetrahydronaphthalen-1-yl)methyl]amino}pyridine-4-carboxylic acid] reads 1 to 10 µM; that for `O=C(O)c1ccncc1NCC1=CCCc2ccc(F)cc21` [Example 51, 3-{[(7-fluoro-3,4-dihydronaphthalen-1-yl)methyl]-amino}pyridine-4-carboxylic acid], more than 10 µM.
Turning to `Cc1cc(C)c2c(c1)C(CNc1cnccc1C(=O)O)CCC2` (centres unmarked) [Example 52, 3-{[(5,7-dimethyl-1,2,3,4-tetrahydronaphthalen-1-yl)-methyl]amino}pyridine-4-carboxylic acid], the IC50 lay within 0.1 to 1 µM.
On the same count and under the same terms, the figure for `O=C(O)c1ccncc1NCC1CCCc2ccc(C3CC3)cc21` (centres unmarked) [Example 53, 3-{[(7-cyclopropyl-1,2,3,4-tetrahydronaphthalen-1-yl)-methyl]amino}pyridine-4-carboxylic acid] is 1 to 10 µM; for `O=C(O)c1ccncc1NCC1CCCc2c(F)cccc21` (centres unmarked) [Example 54, 3-{[(5-fluoro-1,2,3,4-tetrahydronaphthalen-1-yl)-methyl]amino}pyridine-4-carboxylic acid] it is more than 10 µM; for `O=C(O)c1ccncc1NC[C@H]1CCCc2c(F)cccc21` [Example 56, 3-({[(1S)-5-fluoro-1,2,3,4-tetrahydronaphthalen-1-yl]-methyl}amino)pyridine-4-carboxylic acid] it is 1 to 10 µM.
On the same count and under the same terms, the figure for `O=C(O)c1ccncc1NC[C@@H]1CCCc2c(F)cccc21` [Example 57, 3-({[(1R)-5-fluoro-1,2,3,4-tetrahydronaphthalen-1-yl]-methyl}amino)pyridine-4-carboxylic acid] is more than 10 µM.
On the same count and under the same terms, the figure for `O=C(O)c1ccncc1NCC1CCOc2ccccc21` (centres unmarked) [Example 58, 3-[(3,4-dihydro-2H-chromen-4-ylmethyl)amino]pyridine-4-carboxylic acid] is more than 10 µM; for `CC1(C)CCC(CNc2cnccc2C(=O)O)c2ccccc21` (centres unmarked) [Example 59, 3-{[(4,4-dimethyl-1,2,3,4-tetrahydronaphthalen-1-yl)-methyl]amino}pyridine-4-carboxylic acid] it is more than 10 µM; for `COc1ccc2c(c1)CCCC2CNc1cnccc1C(=O)O` (centres unmarked) [Example 60, 3-{[(6-methoxy-1,2,3,4-tetrahydronaphthalen-1-yl)-methyl]amino}pyridine-4-carboxylic acid] it is 1 to 10 µM.
With `COc1ccc2c(c1)CCC[C@@H]2CNc1cnccc1C(=O)O` [Example 61, 3-({[(1S)-6-methoxy-1,2,3,4-tetrahydronaphthalen-1-yl]-methyl}amino)pyridine-4-carboxylic acid], the half-inhibitory concentration (IC50) was 0.1 to 1 µM.
On to `COc1ccc2c(c1)CCC[C@H]2CNc1cnccc1C(=O)O` [Example 62, 3-({[(1R)-6-methoxy-1,2,3,4-tetrahydronaphthalen-1-yl]-methyl}amino)pyridine-4-carboxylic acid], for which the IC50 is more than 10 µM.
On to `Cc1ccc2c(c1)C(CNc1cnccc1C(=O)O)CCO2` (centres unmarked) [Example 63, 3-{[(6-methyl-3,4-dihydro-2H-chromen-4-yl)methyl]-amino}pyridine-4-carboxylic acid], for which the IC50 is more than 10 µM.
With `CC(C)Oc1ccc2c(c1)CCCC2CNc1cnccc1C(=O)O` (centres unmarked) [Example 64], the IC50 was in the range of 1 to 10 µM.
On the same count and under the same terms, the figure for `O=C(O)c1ccncc1NCC1CCOc2cc(Cl)ccc21` (centres unmarked) [Example 66, 3-{[(7-chloro-3,4-dihydro-2H-chromen-4-yl)methyl]-amino}pyridine-4-carboxylic acid] is more than 10 µM.
Same read-out and setting: the result for `O=C(O)c1ccncc1NCC1CCOc2cc(-c3ccccc3)ccc21` (centres unmarked) [Example 69, 3-{[(7-phenyl-3,4-dihydro-2H-chromen-4-yl)methyl]-amino}pyridine-4-carboxylic acid] reads 1 to 10 µM.
The same measure, in the same setting: the result for `O=C(O)c1ccncc1NCC1CCCc2ccc(Cl)cc21` (centres unmarked) [Example 72, 3-{[(7-chloro-1,2,3,4-tetrahydronaphthalen-1-yl)methyl]-amino}pyridine-4-carboxylic acid] reads 1 to 10 µM; that for `O=C(O)c1ccncc1NCC1CCOc2cc(C3CC3)ccc21` (centres unmarked) [Example 75, 3-{[(7-cyclopropyl-3,4-dihydro-2H-chromen-4-yl)-methyl]amino}pyridine-4-carboxylic acid], 1 to 10 µM.
Consider `O=C(O)c1ccncc1NCC1CCCc2cc(OCCC(F)(F)F)ccc21` (centres unmarked) [Example 79], for which the IC50 lay in the range of 1 to 10 µM.
As to `O=C(O)c1ccncc1NCC1CCCc2cc(OCC3CC3)ccc21` (centres unmarked) [Example 81], the IC50 lay within 1 to 10 µM.
Still for that read-out and setting: the figure for `CN1CCC(CNc2cnccc2C(=O)O)c2ccccc21` (centres unmarked) [Example 82, 3{[(1-methyl-1,2,3,4-tetrahydroquinolin-4-yl)methyl]-amino}pyridine-4-carboxylic acid] is more than 10 µM.
On the same count and under the same terms, the figure for `O=C(O)c1ccncc1NC[C@H]1CCOc2cc(-c3ccccc3)ccc21` [Example 83, 3-({[(4S)-7-phenyl-3,4-dihydro-2H-chromen-4-yl]-methyl}amino)pyridine-4-carboxylic acid] is 0.1 to 1 µM; for `O=C(O)c1ccncc1NC[C@H]1CCOc2cc(-c3cccc(F)c3)ccc21` [Example 85, 3-({[(4S)-7-(3-fluorophenyl)-3,4-dihydro-2H-chromen-4-yl]-methyl}amino)pyridine-4-carboxylic acid] it is 0.1 to 1 µM.

Staying with this experiment, now noted: KYSE-150, BrdU incorporation after 168 hr compound incubation; read-out: Cellular IC50.
Regarding “3-{[(6-chloro-1-hydroxy-1,2,3,4- tetrahydronaphthalen-1-yl)methyl]amino} pyridine-4-carboxylic acid [Example 67]”, the half-inhibitory concentration (IC50) was 1 to 10 µM.
